Results on one molecule are retold here after article PMC5438973 (Frontiers in Psychiatry, 2017).

Amino acid sequences for entries named in this document (tags omitted). Residues count along the entry.
UniProt P28223, whole entry: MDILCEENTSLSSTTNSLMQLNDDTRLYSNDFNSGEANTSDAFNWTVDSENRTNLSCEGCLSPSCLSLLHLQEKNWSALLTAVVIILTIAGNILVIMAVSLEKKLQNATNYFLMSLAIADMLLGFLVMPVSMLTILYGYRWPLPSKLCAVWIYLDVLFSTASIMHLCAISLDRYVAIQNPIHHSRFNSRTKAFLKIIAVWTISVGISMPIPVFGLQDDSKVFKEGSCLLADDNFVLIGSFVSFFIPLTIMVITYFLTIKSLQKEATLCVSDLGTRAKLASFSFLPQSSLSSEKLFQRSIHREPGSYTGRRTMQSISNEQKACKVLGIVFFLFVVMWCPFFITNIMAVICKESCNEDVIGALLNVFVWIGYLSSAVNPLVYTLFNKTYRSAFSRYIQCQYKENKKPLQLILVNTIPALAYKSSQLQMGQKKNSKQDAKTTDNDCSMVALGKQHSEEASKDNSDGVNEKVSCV
UniProt P41595, whole entry: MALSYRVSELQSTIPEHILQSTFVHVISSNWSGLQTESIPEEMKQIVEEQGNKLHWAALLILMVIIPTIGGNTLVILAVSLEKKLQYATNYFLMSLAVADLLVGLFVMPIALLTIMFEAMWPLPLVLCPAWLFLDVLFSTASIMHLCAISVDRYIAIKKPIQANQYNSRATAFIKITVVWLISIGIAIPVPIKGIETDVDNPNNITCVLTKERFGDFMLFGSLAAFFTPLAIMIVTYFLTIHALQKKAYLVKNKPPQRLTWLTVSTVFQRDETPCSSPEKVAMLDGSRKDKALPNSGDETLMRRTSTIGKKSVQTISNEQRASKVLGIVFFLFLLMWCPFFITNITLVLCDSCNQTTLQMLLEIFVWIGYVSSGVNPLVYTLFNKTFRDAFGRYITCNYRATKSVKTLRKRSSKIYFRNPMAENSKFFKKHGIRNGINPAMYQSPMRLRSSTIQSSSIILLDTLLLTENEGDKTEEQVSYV
UniProt P28335, 33-458: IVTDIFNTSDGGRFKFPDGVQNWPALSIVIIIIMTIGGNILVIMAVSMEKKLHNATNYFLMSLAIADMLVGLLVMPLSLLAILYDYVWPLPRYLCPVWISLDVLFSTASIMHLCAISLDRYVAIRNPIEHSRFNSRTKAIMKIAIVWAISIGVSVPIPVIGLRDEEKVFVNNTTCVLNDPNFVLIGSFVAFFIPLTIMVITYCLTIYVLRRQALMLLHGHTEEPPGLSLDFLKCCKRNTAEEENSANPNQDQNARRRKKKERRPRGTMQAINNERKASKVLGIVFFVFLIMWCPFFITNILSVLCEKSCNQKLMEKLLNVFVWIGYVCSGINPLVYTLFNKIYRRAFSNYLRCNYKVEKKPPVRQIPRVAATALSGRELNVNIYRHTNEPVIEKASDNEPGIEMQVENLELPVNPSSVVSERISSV

Molecules are shown by their SMILES.

What all share (assay): GTP-γ-[35S] functional assay (SPA), AV12 cells
Holding throughout (assay type): biochemical

The target in test [1] is T1, h5-HT2A (Homo sapiens, UniProt P28223).
T1 construct: expressed in transfected cells; host or cells: AV12 cells
From the text: (§1) 5-HT2 receptors are functionally coupled to specific G-proteins. Agonist activation of 5-HT2 G-protein coupled receptors results in the release of GDP from alpha-subunit (G alpha q or G alpha i) of the G-protein and the subsequent binding of GTP. The binding of the stable analog GTP-g-[^35S] is an indicator of receptor activation. Human cloned 5-HT2A, −2B, and −2C receptors were expressed in AV12 cells. GTP-g-[^35S] nucleotide exchange scintillation proximity assay (SPA) was used to measure binding as previously described ([14]).

Test [2] deals with T2, h5-HT2B (Homo sapiens, UniProt P41595).
T2 construct: expressed in transfected cells; host or cells: AV12 cells
Excerpt: as §1

For test [3], the target named is T3, h5-HT2C (Homo sapiens, UniProt P28335).
T3 construct: expressed in transfected cells; host or cells: AV12 cells
Excerpt: as §1

By EC50 is commonly meant the concentration that produces a half-maximal response. Low values mean greater potency, high ones weaker potency. For `Clc1cccc(N2CCNCC2)c1` [mCPP, meta-chlorophenylpiperazine], the results for the EC50 in test [1], in test [2] and in test [3] were 97 ± 1 nM, 2 ± 1 nM and 1 nM, respectively.
